TDP1 cell CPT – growth inhibition of DT40 Tdp1-/-;hTDP1 cells with camptothecin (screen for TDP1 inhibitors). chicken DT40 Tdp1-/-;hTDP1 cells + 20 nM CPT, ATP luminescence, 48 h. Potency, µM (doses to about 46.2 µM), inactives show at the highest dose activity change, negative = growth inhibition, usual class: inhibitors. hit rate 12% among 420,000; further: potency means the concentration at half of the fitted maximal effect; on the % scale 0 is the no-effect control and ±100 the full control effect; nearly all actives have a fitted effect of over 55% in size
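Chicken DT40 Tdp1-/- cells complemented with human TDP1, 400 cells/well, exposed to compounds plus 20 nM camptothecin for at least 48 h at 37 C; viability read as ATP content by CellTiter-Glo luminescence.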
uPA surface inh – blocks generation of uPA at the cell surface. hit rate 0.31% among 330,000. cell surface uPA generation assay, qHTS. Potency, µM (titrated, usually from 38.3 µM), for the others: at the highest dose activity change, negative = inhibition, usual class: inhibitors; active means well fitted inhibition curve with a large enough effect; inconclusive means small, poorly fitted or top-dose-only effect; inactive means no such curve, though single readings can be large or run the other way; tested in mouse RAW 264.7 cells; further: potency means the concentration at half of the fitted maximal effect; on the % scale 0 is the no-effect control and ±100 the full control effect; nearly all actives have a fitted effect of over 55% in size
TDP1 block – inhibitors of human tyrosyl-DNA phosphodiesterase TDP1 | Q9NUW8 | recombinant TDP1, AlphaScreen DNA substrate cleavage | Potency, µM (series often up to 130 µM), without a hit: at the highest dose activity change, negative = inhibition, hits mostly inhibitors | hit rate 0.28% among 350,000; further: potency means the concentration at half of the fitted maximal effect; on the % scale 0 is the no-effect control and ±100 the full control effect; nearly all actives have a fitted effect of over 40% in size
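Recombinant E. coli-expressed Tdp1 (1 nM) preincubated with compound 15 min at RT, then 5'-biotin/3'-phosphotyrosine-FITC DNA substrate (15 nM) added for 5 min. AlphaScreen beads (10 ug/ml) added, 10 min RT; tyrosine-FITC cleavage read as signal loss.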
DT40 TDP1 no CPT – qHTS for Inhibitors of human tyrosyl-DNA phosphodiesterase 1 (TDP1): qHTS in cells in absence of CPT; DT40 Tdp1-/- hTDP1 cells, no CPT, ATP luminescence, 48 h; Potency, µM (top dose mostly 46.2 µM), for the others: top-dose activity change, negative = growth inhibition, most hits filed as inhibitors; hit rate 15% among 420,000; AID 686978, 2013; further: potency means the concentration at half of the fitted maximal effect; on the % scale 0 is the no-effect control and ±100 the full control effect; nearly all actives have a fitted effect of over 55% in size
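Growth of hTDP1-complemented DT40 Tdp1-knockout cells is measured by ATP luminescence after at least 48 hr compound exposure at 37 °C, with DMSO substituting for the 20 nM CPT used in the parallel screen.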
miR-21 reporter – raises the signal of a miR-21 reporter | HeLa miR-21 FLuc reporter, luciferase, 48 h | Potency, µM (highest dose often 38.3 µM), without a hit: at the top dose reporter change, positive = more light | 340,000 tested, under 10 active; active = well fitted rising curve with a large enough effect; inconclusive = small, poorly fitted or top-dose-only effect; inactive = no such curve, though single readings can be large or run the other way;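 note: % of control where 0% means no effect; miR-21 action dims this reporter so a rising signal means less miR-21 action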
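Compounds were titrated across several concentrations (up to approximately 40 uM) and incubated 48 hours with HeLa miR-21-FLuc reporter cells (miR-21 target sequence downstream of FLuc, endogenous miR-21). Readout was firefly luciferase luminescence after lytic detection reagent.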
Starred values were filed as active, the others as inactive; u = inconclusive; x = no result given; [ ] = dose if it differs, or a comment. A selection: hits, their analogues and other compounds. The true share with any hit is near 16%. Unless noted, the call rests on the fitted dose curve; in most records, active means well fitted curve in the direction sought with a large enough effect; inconclusive means small, poorly fitted or top-dose-only effect, or another doubt; inactive means no such curve, though single readings can be large; an effect the other way counts as inactive or inconclusive.

Field names: A = TDP1 cell CPT; B = uPA surface inh; C = TDP1 block; D = DT40 TDP1 no CPT; E = miR-21 reporter
(1) Cc1c(CC(=O)NCC(C)C)c(=O)oc2cc3c(cc12)CCC(C)(C)O3
  A: 16µM*; B: -4%; C: x; D: 18µM*; E: -37%
(2) Cc1c(CC(=O)NCCC(C)C)c(=O)oc2cc3c(cc12)CCC(C)(C)O3
  A: -13%; B: 0%; C: x; D: 21µM*; E: 3%
(3) CCOC(=O)/C(=C\C=C1/Sc2ccccc2N1CC)C(C)=O
  A: u; B: 7%; C: 6%; D: 12µM*; E: -44%
(4) CCOC(=O)/C(=C/C=C1\Sc2cc(C)c(C)cc2N1CC)C(C)=O
  A: 4.6µM*; B: -8%; C: 1%; D: 2.3µM*; E: 1%
(5) CCOC(=O)/C(=C/C=C1\Sc2ccccc2N1CC)C(C)=O
  A: 21µM*; B: 3%; C: 6%; D: 21µM*; E: -37%
(6) CCOC(=O)c1[nH]c(C)c(C(=O)OCCN2C(=O)c3ccccc3C2=O)c1C
  A: -6%; B: -4%; C: 6%; D: -20%; E: -5%
(7) O=C(CN1C(=O)CSc2ncccc21)Nc1cccc(Cl)c1
  A: u; B: -2%; C: x; D: u; E: -26%
(8) Cc1nn(CCCC(=O)Nc2sc3c(c2C#N)CCC3)c(C)c1[N+](=O)[O-]
  A: -28%; B: 9%; C: 0%; D: u; E: 1%
(9) Cc1nn(CC(=O)Nc2sc3c(c2C#N)CCC(C(C)(C)C)C3)c(C)c1[N+](=O)[O-] (centres undefined)
  A: 26µM*; B: 3%; C: 4%; D: 18µM*; E: -4%
(10) CCc1ccc2nc(SCC(=O)Nc3nnc(C)s3)c(C)cc2c1
  A: 9.2µM*; B: 1%; C: 5%; D: u; E: 0%
(11) CCCC(=O)Nc1ccc(NC(=S)NC(=O)c2ccccc2[N+](=O)[O-])cc1
  A: u; B: -12%; C: 1%; D: 29µM*; E: 7%
(12) CC(C)NC(=S)NC(=O)c1ccc(-c2ccccc2)cc1
  A: 23µM*; B: -3%; C: 5%; D: 16µM*; E: -4%
(13) CCC(=O)Nc1cccc(NC(=S)NC(=O)c2ccc(Cl)cc2)c1
  A: 18µM*; B: -3%; C: 2%; D: 15µM*; E: -54%
(14) O=C(NC(=S)Nc1ccc(Oc2ccc(Cl)cc2)cc1)c1ccccc1
  A: u; B: -4%; C: 2%; D: 21µM*; E: 12%
(15) O=C(NC(=S)Nc1ccc(-c2ccccc2)cc1)c1ccccc1
  A: -25%; B: 5%; C: x; D: u; E: x
(16) Cc1ccc(NC(=O)N2CCCC2C(=O)Nc2ccc3c(c2)OCO3)cc1 (centres undefined)
  A: 1%; B: 2%; C: 6%; D: 4%; E: -10%
(17) O=C(c1cc(Cl)nc2ccccc12)N1CCN(S(=O)(=O)c2cccc(F)c2)CC1
  A: -29%; B: -7%; C: x; D: -26%; E: x
(18) CC(C(=O)NC(=O)NC1CCCCC1)N1CCN(c2ccc(O)cc2)CC1 (centres undefined)
  A: u; B: -5%; C: 5%; D: -26%; E: x
(19) O=C(NC(=S)Nc1ccc(NC(=O)c2ccccc2)cc1)c1ccc(F)cc1
  A: 7%; B: 4%; C: 2%; D: 1%; E: -13%
(20) O=C(Nc1ccc(NC(=S)NC(=O)C(c2ccccc2)c2ccccc2)cc1)c1ccccc1
  A: u; B: -7%; C: x; D: 15µM*; E: x
(21) CCC(=O)NC(=S)Nc1cccc(NC(=O)c2ccccc2)c1
  A: 6%; B: -5%; C: -6%; D: 2%; E: 5%
(22) Cc1cc(C)c(NC(=S)NC(=O)c2ccccc2)cc1C
  A: 21µM*; B: x; C: x; D: 8.2µM*; E: x
(23) CCC(=O)NC(=S)Nc1ccc(NC(=S)NC(=O)c2ccccc2)cc1
  A: u; B: -8%; C: 5%; D: 18µM*; E: 29%
(24) O=C(Cc1ccccc1)NNC1CC(=O)N(c2ccccc2)C1=O (centres undefined)
  A: 0%; B: 7%; C: 0%; D: -13%; E: -2%
(25) Cc1ccc(-n2nc(C(=O)c3ccccc3)n3c(=O)cc(-c4ccccc4)nc23)cc1
  A: -7%; B: 4%; C: 5%; D: -25%; E: -5%
(26) COCc1cccc(-c2csc(C(NC(C)=O)c3cccc(F)c3)n2)c1 (centres undefined)
  A: -25%; B: x; C: x; D: -14%; E: x
(27) CCOc1ccc(N2C=Nc3ccc(OCC)cc3C2)cc1
  A: 21µM*; B: -5%; C: x; D: 18µM*; E: -8%
(28) CC(C)(C)NCc1cc(Br)ccc1OCc1cccs1
  A: u; B: -2%; C: -3%; D: u; E: 2%
(29) CC(C)(C)NCc1cc(Cl)ccc1OCc1cccs1
  A: 15µM*; B: -4%; C: -1%; D: u; E: -3%
(30) COc1cc(CNCCO)cc(Br)c1OCc1cccs1
  A: -17%; B: -6%; C: 1%; D: 29µM*; E: 2%

4 entries from above, field by field.
(16) Cc1ccc(NC(=O)N2CCCC2C(=O)Nc2ccc3c(c2)OCO3)cc1 (centres undefined)
  TDP1 cell CPT = 1% | uPA surface inh = 2% | TDP1 block = 6% | DT40 TDP1 no CPT = 4% | miR-21 reporter = -10%

(27) CCOc1ccc(N2C=Nc3ccc(OCC)cc3C2)cc1
  TDP1 cell CPT = 21µM* | uPA surface inh = -5% | TDP1 block = x | DT40 TDP1 no CPT = 18µM* | miR-21 reporter = -8%

(26) COCc1cccc(-c2csc(C(NC(C)=O)c3cccc(F)c3)n2)c1 (centres undefined)
  TDP1 cell CPT = -25% | uPA surface inh = x | TDP1 block = x | DT40 TDP1 no CPT = -14% | miR-21 reporter = x

(18) CC(C(=O)NC(=O)NC1CCCCC1)N1CCN(c2ccc(O)cc2)CC1 (centres undefined)
  TDP1 cell CPT = u | uPA surface inh = -5% | TDP1 block = 5% | DT40 TDP1 no CPT = -26% | miR-21 reporter = x

Other results.
Field names: A = TDP1 cell CPT; B = uPA surface inh; C = TDP1 block; D = DT40 TDP1 no CPT; E = miR-21 reporter
(31) CCOc1cc(CNCc2cccs2)cc(Br)c1OC
  A: u; B: 4%; C: 4%; D: u; E: -13%
(32) COc1cc(CNC(C)(C)C)cc(Br)c1OCc1cccs1
  A: u; B: -2%; C: 1%; D: 15µM*; E: -1%
(33) O=C1NC(c2cccc(OCc3ccccc3)c2)Nc2ccccc21 (centres undefined)
  A: 1.5µM*; B: -9%; C: x; D: 1.2µM*; E: x
(34) Oc1ccc(Cl)cc1N=Nc1ccccc1
  A: -21%; B: 14%; C: 9%; D: -28%; E: -11%
(35) Nc1c(Cl)cc(N=Nc2ccccc2)cc1Cl
  A: u; B: -2%; C: x; D: 13µM*; E: x
(36) O=C1[C@H]2[C@H]3[C@H](O)[C@H](O)C/C(=N/OCc4ccccc4)[C@@H]3CC[C@@H]2C(=O)N1Cc1ccccc1
  A: x; B: x; C: 8%[21 µM]; D: x; E: x
(37) COC(=O)c1c(C)sc(-c2c(-c3ccc4c(c3)OCCO4)[nH]c3c2c(=O)[nH]c(=O)n3C)c1O
  A: u; B: x; C: -11%; D: 21µM*; E: 2%
(38) Nc1cc(C(Cl)=C(Cl)Cl)c(S(N)(=O)=O)cc1S(N)(=O)=O
  A: 2%; B: 9%; C: -7%[56.1 µM]; D: 1%; E: x
(39) COc1ccccc1CNC(=O)c1cc(S(=O)(=O)N2CCCC2)cn1C
  A: -20%; B: -1%; C: x; D: -16%; E: 1%
(40) Cn1cc(S(=O)(=O)N2CCCC2)cc1C(=O)NCc1ccccc1Cl
  A: 16µM*; B: -7%; C: x; D: -16%; E: 0%
(41) COc1cccc(CNC(=O)c2cc(S(=O)(=O)N3CCOCC3)cn2C)c1
  A: 21µM*; B: 14%; C: x; D: 1%; E: 2%
(42) CN(CC(=O)Nc1ccc(Cl)c(Cl)c1)C(=O)C12CC3CC(CC(C3)C1)C2
  A: u; B: -14%; C: 6%; D: u; E: 17%
(43) O=C(c1cc(COc2cccc3cnccc23)on1)N1CCC(c2ccccc2Cl)C1 (centres undefined)
  A: 23µM*; B: -25%; C: 6%; D: 18µM*; E: 15%
(44) O=C(c1cc(COc2c(F)cccc2F)on1)N1CCC(c2ccncc2)CC1
  A: 9.2µM*; B: -4%; C: 3%; D: 9.2µM*; E: 13%
(45) O=C(c1cc(COc2c(F)cccc2F)on1)N1CCC(c2ccccc2Cl)C1 (centres undefined)
  A: -1%; B: -1%; C: 0%; D: -18%; E: -47%
